Test results: patent publication US6693184B1, “DNA molecules encoding splice variants of the human melanocortin 1 receptor protein” (Merck & Co., Inc., priority 1998, dated 2004)

Molecular target: T1, human MC-R1B receptor (Homo sapiens, UniProt Q01726, W317C)
T1 construct: Full-length cDNA encoding MC-R1B was isolated from human testis poly; expressed in transfected cells; host or cells: COS-7 (transient, electroporation of expression plasmid; pcDNA3 / pcDNA-3.1(-) vectors described for the clones)
T1 sequence (Q01726 with tags, fused parts or gaps): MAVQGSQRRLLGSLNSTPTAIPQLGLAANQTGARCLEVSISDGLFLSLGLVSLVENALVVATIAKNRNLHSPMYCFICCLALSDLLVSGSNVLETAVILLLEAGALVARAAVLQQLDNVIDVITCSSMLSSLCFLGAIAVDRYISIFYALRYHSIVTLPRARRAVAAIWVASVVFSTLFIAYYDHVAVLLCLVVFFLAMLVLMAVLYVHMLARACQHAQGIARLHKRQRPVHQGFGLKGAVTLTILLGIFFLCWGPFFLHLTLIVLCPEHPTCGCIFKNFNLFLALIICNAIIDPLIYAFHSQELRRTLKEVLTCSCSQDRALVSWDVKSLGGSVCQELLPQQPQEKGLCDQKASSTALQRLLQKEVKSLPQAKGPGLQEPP
Experiment: Melanocortin radioligand binding assay ([125I]-NDP-αMSH displacement)
Conditions: displacement of 200 pM [125I]-NDP αMSH from crude membranes of cells expressing human MC-R1B, 1 hour
Experimental: Filters were washed three times with TNE buffer (50 mM Tris pH 7.4, 5 mM EDTA, 150 mM NaCl), dried and counted using Microscint-20 in a Topcount scintillation counter (Packard).

Substance: MT-II
- IC50: 200 pM
